In ChEMBL document CHEMBL1201862, “PubChem BioAssay data set” (2004) one finds Potency data, which are given here for two molecules.

Protein sequences, listed by entry. Tags and fused reporters are not part of them.
UniProt Q14974, whole entry, looked up: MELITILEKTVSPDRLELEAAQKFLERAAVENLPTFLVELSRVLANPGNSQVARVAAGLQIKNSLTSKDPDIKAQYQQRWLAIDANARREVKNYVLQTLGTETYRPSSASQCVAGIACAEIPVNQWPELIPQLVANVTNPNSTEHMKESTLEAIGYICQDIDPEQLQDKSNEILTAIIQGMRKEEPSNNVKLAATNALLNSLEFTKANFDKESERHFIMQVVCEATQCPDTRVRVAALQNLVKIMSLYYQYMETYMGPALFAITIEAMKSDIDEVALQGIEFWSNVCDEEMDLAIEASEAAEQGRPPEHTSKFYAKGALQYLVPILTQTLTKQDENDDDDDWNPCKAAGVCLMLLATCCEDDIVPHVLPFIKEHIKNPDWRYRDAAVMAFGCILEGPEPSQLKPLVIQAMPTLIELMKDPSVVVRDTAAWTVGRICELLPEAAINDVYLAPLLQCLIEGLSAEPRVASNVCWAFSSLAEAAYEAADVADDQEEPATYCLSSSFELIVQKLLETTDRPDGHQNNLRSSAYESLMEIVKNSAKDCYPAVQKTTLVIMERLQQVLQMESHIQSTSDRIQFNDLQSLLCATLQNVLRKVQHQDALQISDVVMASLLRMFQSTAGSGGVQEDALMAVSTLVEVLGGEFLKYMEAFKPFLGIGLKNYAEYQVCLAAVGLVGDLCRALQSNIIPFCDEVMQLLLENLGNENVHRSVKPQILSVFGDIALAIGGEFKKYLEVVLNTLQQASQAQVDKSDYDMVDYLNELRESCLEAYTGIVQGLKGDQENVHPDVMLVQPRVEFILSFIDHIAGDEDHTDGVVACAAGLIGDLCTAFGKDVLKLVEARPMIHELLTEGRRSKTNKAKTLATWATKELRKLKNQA
UniProt O95149, whole entry, looked up: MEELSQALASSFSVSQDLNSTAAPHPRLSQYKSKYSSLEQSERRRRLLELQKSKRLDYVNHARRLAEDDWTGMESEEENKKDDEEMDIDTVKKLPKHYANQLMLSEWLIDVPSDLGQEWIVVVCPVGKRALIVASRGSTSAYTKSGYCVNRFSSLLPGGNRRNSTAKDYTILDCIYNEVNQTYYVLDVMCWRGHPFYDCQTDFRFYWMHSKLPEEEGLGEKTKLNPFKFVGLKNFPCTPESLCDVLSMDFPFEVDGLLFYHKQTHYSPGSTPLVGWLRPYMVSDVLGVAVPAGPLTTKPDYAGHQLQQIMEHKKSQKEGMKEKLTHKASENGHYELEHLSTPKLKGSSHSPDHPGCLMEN

Only a part is listed here, and it is no random draw. Only a part of the results of these assays is listed, not drawn at random. Activity calls are given as the source filed them. The calls are words filed in the database; no cut-off is given here.

The target of this assay is GTP-binding nuclear protein Ran/Importin subunit beta-1/Snurportin-1 (Homo sapiens) (UniProt P62826+Q14974+O95149). Put plainly: qHTS Assay for Inhibitors of RanGTP induced Rango (Ran-regulated importin-beta cargo) - Importin beta complex dissociation. [Related pubchem assays (depositor defined):AID540262]. It counts as functional.
`O=C(O)C(O)c1ccccc1` (configuration not stated): the Potency entry was “inactive”.

Take `O=C(O)[C@@H](O)c1ccccc1`: the Potency result was “inactive”.
